IC50 data for one compound are collected here from patent publication US20080242716A1, “Ion Channel Modulators” (priority 2004, published 2008).

By UniProt entry, the sequences of proteins in these tests, tags left out.
UniProt Q02294, whole entry: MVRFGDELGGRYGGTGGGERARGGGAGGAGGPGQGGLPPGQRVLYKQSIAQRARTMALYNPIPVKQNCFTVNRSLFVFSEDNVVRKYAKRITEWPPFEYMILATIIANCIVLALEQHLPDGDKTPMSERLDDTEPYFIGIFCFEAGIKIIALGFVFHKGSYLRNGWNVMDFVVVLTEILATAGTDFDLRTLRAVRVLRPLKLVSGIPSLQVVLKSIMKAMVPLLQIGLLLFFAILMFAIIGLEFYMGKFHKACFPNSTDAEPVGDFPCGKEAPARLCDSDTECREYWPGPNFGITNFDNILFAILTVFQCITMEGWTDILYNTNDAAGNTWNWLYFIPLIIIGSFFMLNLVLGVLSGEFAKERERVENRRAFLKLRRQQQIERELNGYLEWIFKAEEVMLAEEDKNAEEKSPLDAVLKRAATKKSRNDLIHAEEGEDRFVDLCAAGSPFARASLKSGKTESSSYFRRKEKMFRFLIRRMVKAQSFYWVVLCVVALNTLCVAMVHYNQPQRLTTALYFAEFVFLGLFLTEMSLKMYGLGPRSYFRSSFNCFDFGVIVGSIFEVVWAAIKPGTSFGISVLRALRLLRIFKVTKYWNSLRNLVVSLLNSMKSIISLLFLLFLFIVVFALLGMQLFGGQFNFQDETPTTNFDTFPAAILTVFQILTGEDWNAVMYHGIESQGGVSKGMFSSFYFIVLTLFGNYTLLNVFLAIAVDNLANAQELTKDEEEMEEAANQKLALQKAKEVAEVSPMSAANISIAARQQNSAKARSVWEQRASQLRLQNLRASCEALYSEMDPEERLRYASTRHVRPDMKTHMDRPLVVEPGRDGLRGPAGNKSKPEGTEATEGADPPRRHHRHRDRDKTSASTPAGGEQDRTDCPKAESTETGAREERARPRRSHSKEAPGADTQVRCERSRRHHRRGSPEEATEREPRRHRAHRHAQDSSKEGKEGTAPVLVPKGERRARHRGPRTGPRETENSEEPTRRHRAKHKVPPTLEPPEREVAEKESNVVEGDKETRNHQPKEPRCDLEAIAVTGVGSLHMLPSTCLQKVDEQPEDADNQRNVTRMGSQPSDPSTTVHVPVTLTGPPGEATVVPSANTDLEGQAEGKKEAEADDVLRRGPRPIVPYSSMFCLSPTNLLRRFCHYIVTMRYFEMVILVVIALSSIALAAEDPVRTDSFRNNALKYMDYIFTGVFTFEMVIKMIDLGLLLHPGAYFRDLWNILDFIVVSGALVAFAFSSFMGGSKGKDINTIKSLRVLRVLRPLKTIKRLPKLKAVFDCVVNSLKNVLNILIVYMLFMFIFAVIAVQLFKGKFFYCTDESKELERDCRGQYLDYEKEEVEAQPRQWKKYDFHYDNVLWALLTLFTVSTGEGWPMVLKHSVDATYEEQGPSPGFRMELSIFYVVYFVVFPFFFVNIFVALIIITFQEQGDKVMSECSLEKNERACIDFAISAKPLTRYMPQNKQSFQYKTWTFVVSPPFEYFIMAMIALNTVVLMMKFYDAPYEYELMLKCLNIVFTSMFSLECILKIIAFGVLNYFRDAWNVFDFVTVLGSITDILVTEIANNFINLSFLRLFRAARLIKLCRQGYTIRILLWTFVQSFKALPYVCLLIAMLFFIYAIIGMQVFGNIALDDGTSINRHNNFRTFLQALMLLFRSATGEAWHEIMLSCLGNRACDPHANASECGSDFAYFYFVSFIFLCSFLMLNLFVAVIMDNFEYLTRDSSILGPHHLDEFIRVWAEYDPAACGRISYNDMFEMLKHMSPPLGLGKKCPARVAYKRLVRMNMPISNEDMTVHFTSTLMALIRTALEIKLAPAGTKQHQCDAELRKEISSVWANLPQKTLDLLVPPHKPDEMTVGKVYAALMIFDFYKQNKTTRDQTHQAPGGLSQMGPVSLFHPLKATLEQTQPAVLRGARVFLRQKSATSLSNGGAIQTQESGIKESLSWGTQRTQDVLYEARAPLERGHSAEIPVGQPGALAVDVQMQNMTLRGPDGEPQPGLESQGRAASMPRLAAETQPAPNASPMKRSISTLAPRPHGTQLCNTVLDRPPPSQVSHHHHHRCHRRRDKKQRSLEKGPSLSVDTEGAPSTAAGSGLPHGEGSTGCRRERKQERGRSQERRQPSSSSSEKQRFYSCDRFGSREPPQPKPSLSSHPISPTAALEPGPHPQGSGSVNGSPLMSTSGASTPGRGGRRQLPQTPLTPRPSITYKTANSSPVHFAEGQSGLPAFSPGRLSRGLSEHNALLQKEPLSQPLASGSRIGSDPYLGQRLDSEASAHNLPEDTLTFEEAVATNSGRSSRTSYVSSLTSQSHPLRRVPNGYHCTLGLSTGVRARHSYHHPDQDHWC
UniProt P54287, whole entry partner: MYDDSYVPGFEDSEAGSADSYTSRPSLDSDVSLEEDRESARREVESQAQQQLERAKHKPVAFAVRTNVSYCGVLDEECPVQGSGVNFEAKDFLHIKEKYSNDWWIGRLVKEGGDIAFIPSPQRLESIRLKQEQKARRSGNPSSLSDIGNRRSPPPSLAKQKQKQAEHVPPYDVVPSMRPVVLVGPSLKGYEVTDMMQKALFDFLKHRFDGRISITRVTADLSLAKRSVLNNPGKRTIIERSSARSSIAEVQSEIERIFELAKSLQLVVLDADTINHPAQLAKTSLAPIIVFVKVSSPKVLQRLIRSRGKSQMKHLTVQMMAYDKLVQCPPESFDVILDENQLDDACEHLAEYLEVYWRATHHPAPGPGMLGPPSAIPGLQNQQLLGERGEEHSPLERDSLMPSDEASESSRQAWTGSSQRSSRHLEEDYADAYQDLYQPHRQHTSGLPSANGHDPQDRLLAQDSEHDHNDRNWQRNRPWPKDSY

Broadly, the IC50 is the concentration that gives 50% inhibition.

In the assay the target is calcium channels (e.g., Cav2.2 subfamily) (Rattus norvegicus, UniProt Q02294). As to the kind of experiment: Oocyte assay (Xenopus oocyte heterologous expression system). It counts as cell-based. The note with it: modulation of calcium channel. As for the experimental part:
Representative compounds of the formulae herein are screened for activity against calcium channel targets in an assay essentially as described in Neuron January 1997, 18(11): 153-166, Lin et. al.; J. Neurosci. Jul. 1, 2000,20(13):4768-75, J. Pan and D. Lipsombe; and J. Neurosci., Aug. 15, 2001, 21(16):5944-5951, W. Xu and D. Lipscombe, using Xenopus oocyte heterologeous expression system. The assay is performed on various calcium channels (e.g., Cav2.2subfamily) whereby the modulation of the calcium channel is measured for each compound. Table 2 contains IC50's for representative compounds disclosed in the invention.

`Fc1ccc(Cc2nc(CNc3ccc(F)cc3)cn2-c2ccc(Cl)cc2)cc1`: the IC50 was 3.8 µM.
